Test results reported in article PMC6920932, “Deciphering the Structural Basis of High Thermostability of Dehalogenase from Psychrophilic Bacterium Marinobacter sp. ELB17” (Microorganisms, 2019).

System: DmxA
Test: isothermal titration calorimetry, steady-state kinetics
Details: 100 mM glycine buffer pH 8.6, 37 °C; substrate inhibition

BrCCBr
Km: 800 µM
